Experiment [1] deals with BRD4-1 (BRD4 BD1) (Homo sapiens, UniProt O60885). The experiment can be described thus: AlphaScreen binding assay of BRD4 biochemical activity (BD1). The conditions noted are these: read-out: BRD4 (BD1) IC50; BD1, first value of cell; 10 concentrations, single well, initial 10 μM, 3-fold dilution. (In general: Alpha assays give light when donor and acceptor beads are brought close together.)

The target in experiment [2] is BRD4-2 (BRD4 BD2) (Homo sapiens, UniProt O60885). The experiment can be described thus: AlphaScreen binding assay of BRD4 biochemical activity (BD2). Conditions: read-out: BRD4 (BD2) IC50; BD2, second value of cell; 10 concentrations, single well, initial 10 μM, 3-fold dilution.

What is called IC50 is the concentration at which inhibition is half-maximal.

Consider `Cc1sc2c(c1C)C(c1ccc(Cl)cc1)=N[C@@H](CC(=O)Nc1ccc3c(c1)CC1CON=C31)c1nnc(C)n1-2` (single isomer, unassigned) [Compound 5], for which the IC50 in experiment [1] was determined as 31.2 nM; in experiment [2] it was 4.06 nM.

With `Cc1sc2c(c1C)C(c1ccc(Cl)cc1)=N[C@@H](CC(=O)Nc1ccc3c(c1)CC1CON=C31)c1nnc(C)n1-2` (single isomer, unassigned) [Compound 6], the IC50 turned out to be 63.8 nM in experiment [1] and 15.1 nM in experiment [2].

For the origin of these results see patent US20220177490A1, “COMPOUNDS HAVING BOTH EFFECTS OF BET BROMODOMAIN PROTEIN INHIBITION AND PD-L1 GENE REGULATION” (priority 2019, published 2022).
